Screens: PubChem, several laboratories
Most compounds without a hit are left out; they make up all but 2.1% or so of the library.
Rev-erbA mod: modulators of human Rev-erb alpha DNA binding | activity, % at 10 µM | P20393 | Rev-erbα–FITC-DNA binding, fluorescence polarization, 90 min | AID 1259318 | actives 0.79% (n = 370,000);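 active = activity above about 14%, limit read from the data; passing the limit was not always enough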
GSIS activator: primary screen for activators of insulin secretion dependent on glucose, INS-1E cells, GLuc reporter luminescence; actives 0.61% (n = 370,000); INS-1E GLuc reporter insulin secretion, 2-3 h; activation, % at 16.6 µM;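 active = lowest replicate activation of at least 40%, so every replicate reaches that level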
PDI turbidity: PDI (human) enzyme inhibition; P07237; PDI insulin aggregation turbidity, A650, 90 min; inhibition, % at 10 µM; actives 0.052% (n = 350,000); AID 588391;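 active = mean inhibition across replicates of 30% or more, whatever share of single replicates reach that level; inconclusive = mean inhibition below 30% while every single replicate reaches 30%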
Yeast UUG start: yeast start codon fidelity modulation; activity score, % at 18.7 µM; actives 0.13% (n = 350,000); S. cerevisiae UUG-firefly luciferase reporter, luminescence/redox ratio; AID 602363;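 active means replicate mean at a twofold rise or more, about +100% in these data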;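 further: firefly luciferase made from a UUG start codon reports start codon fidelity; reporter light over untreated wells divided by growth signal over untreated wells; some hits fall short of that in this replicate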
SMARCA2 act: activators of SMARCA2 function; MG213 cells, MMTV-luciferase reporter, dexamethasone, overnight; activation, % at 9.1 µM; actives 1% (n = 370,000); in the data active = activation above about 7.8%
ERp5 block: blocks human ERp5 reductase activity on insulin. actives 0.05% (n = 350,000). ERp5 insulin aggregation, absorbance 650 nm, 90 min. inhibition, % at 9.99 µM;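 active = mean replicate inhibition above about 25%, with every replicate also reaching it, limit read from the data, passing the limit was not always enough; inconclusive = only one of those two criteria met; inactive = neither criterion met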
Rev-erbA confirm: confirmation of modulators of human Rev-erb alpha DNA binding; shares compounds with Rev-erbA mod; Rev-erb alpha FITC-DNA binding, fluorescence polarization, 90 min; activation, % at 25 µM; actives 61% (n = 3,000); AID 1259319;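 active = activation at or above a set limit, or at least 3 SD above the negative control mean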
RORg DNA counter: RORgamma DNA-binding activity, dose-response counter-screen; actives 8% (n = 910); IC50, µM; purified RORgamma protein-FITC-DNA binding, fluorescence polarization; AID 1259320; shares compounds with Rev-erbA mod;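 active = Compounds whose fitted half-maximal concentration for disrupting protein-DNA binding is below 10 micromolar; the record names Rev-erb in its text, so the target is in doubt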
A number is an active result; 0 = inactive; ? = inconclusive; - = no result.

SMILES	Rev-erbA mod	GSIS activator	PDI turbidity	Yeast UUG start	SMARCA2 act	ERp5 block	Rev-erbA confirm	others
Cc1cccc(CSc2nc3ccncc3n2CC(=O)Nc2cc(C)cc(C)c2)c1	28.9	0	-	0	0	0	13.4
c1ccc(N(c2ccccc2)c2nc(N3CCCC3)nc(-n3ccnc3)n2)cc1	37.4	-	0	0	0	-	57.5	RORg DNA counter=8.46
COc1ccc2oc(=O)c(-c3cn4ccc(C)cc4n3)cc2c1	75.8	0	0	-	0	0	0
COc1ccc(C#Cc2ccc3c(c2)[C@H]2[C@H](CCN2S(=O)(=O)c2ccc(OC)cc2)[C@@H](CO)N3C)cc1	-	0	-	0	-	0	-
Cc1noc(C)c1S(=O)(=O)Nc1ccc2c(c1)C(=O)N([C@H](C)CO)C[C@@H](C)[C@@H](CN(C)S(=O)(=O)c1ccccc1)OCCCC[C@H](C)O2	-	0	-	0	-	0	-
Cn1c(SCC(=O)Nc2ccc(Cl)cc2)nnc1C1CC1	0	0	0	0	0	0	-
CSc1sc(-c2nnc(SCC(=O)Nc3ccc(Cl)cc3)n2C)c2c1C=CCC2	33.2	0	0	0	0	0	0
C[C@@H]1CN([C@@H](C)CO)C(=O)Cc2cc(NS(=O)(=O)c3cn(C)cn3)ccc2O[C@H]1CN(C)C(=O)Nc1ccc2c(c1)OCO2	-	0	-	0	-	0	-
O=C(Nc1ccc2c(c1)COC2=O)c1ccc(Cl)c(Cl)c1	47.9	0	0	0	0	0	27.2
O=C(Nc1ccc(Cl)c(Cl)c1)c1ccc(Cl)c(Cl)c1	0	0	0	0	0	0	-
COCC(=O)N[C@@H]1CC[C@H](CC(=O)N2CCCCC2)O[C@H]1CO	-	0	-	0	-	0	-
Cc1nc(SCc2nc3ccccc3[nH]2)c2oc3cc(Br)ccc3c2n1	46.4	-	0	0	0	0	53.2	RORg DNA counter=0
Cc1ccc2oc3c(SCc4nc5ccccc5[nH]4)nc(C)nc3c2c1	0	-	0	0	0	0	-
Cc1nc(SCc2nc3ccc(C(=O)c4ccccc4)cc3[nH]2)c2oc3ccccc3c2n1	63.3	0	0	0	0	0	75.5
Cc1nc(SCc2nc3ccc(F)cc3[nH]2)c2oc3ccccc3c2n1	0	0	0	0	0	0	-
COC(=O)C[C@@H]1CC[C@@H](NS(=O)(=O)c2ccc(OC)cc2)[C@H](CO)O1	-	0	-	0	-	?	-
CC(OC(=O)c1cc2c(ccc3ccccc32)oc1=O)c1nc2ccccc2s1 (stereo not drawn)	54.1	0	0	0	0	0	32.7	RORg DNA counter=0
CC(C)(C)NC(=O)c1cc2c(ccc3ccccc32)oc1=O	37.2	0	0	0	0	0	25.3
CCCN1C[C@H](C)[C@H](OC)CN(C)C(=O)c2cc(NC(=O)c3cccc(OC)c3)ccc2OC[C@@H]1C	-	0	-	-	-	-	-
CC(=O)NC[C@H]1[C@@H](c2ccc(-c3cccc(F)c3)cc2)[C@@H](CO)N1C(C)=O	-	0	-	0	-	0	-
C[C@@H]1CN([C@H](C)CO)C(=O)c2cc(C#CCN(C)C)cnc2O[C@@H]1CN(C)Cc1ccccc1F	-	0	-	0	-	0	-
Cc1cc(-c2ccccc2)nc2oc3c(c12)NC(=O)CN(c1ccccc1)C3=O	23.2	-	0	0	0	0	35.0	RORg DNA counter=1.13
COc1cccc(N2CC(=O)Nc3c(oc4nc(-c5ccccc5)cc(C)c34)C2=O)c1	0	0	0	-	0	0	-
O=C1CN(Cc2ccccc2)C[C@@H]2[C@H](c3ccc(-c4cccnc4)cc3)[C@@H](CO)N12	-	0	-	-	-	0	-
CC(=O)N(C)C[C@@H]1Oc2ncc(-c3ccc(F)cc3)cc2C(=O)N([C@H](C)CO)C[C@H]1C	-	0	-	0	-	0	-
CC1CCCN(C(=O)c2ccc3c(=O)n4nc(Nc5ccccc5)sc4nc3c2)C1 (stereo not drawn)	0	-	0	0	0	0	-
Cc1cccc(Nc2nn3c(=O)c4ccccc4nc3s2)c1	298.7	-	0	0	0	-	289.5	RORg DNA counter=0
O=c1c(=O)n2c(nn1Cc1ccc(F)cc1)sc1ccccc12	33.2	-	0	0	0	0	20.2
CC(C)OC(=O)CSc1nc2cc3c(cc2cc1C#N)OCO3	49.2	-	0	0	0	-	0
